# Values of other authors in paper PMC6680850, “Anion Inhibition Profile of the β-Carbonic Anhydrase from the Opportunist Pathogenic Fungus Malassezia restricta Involved in Dandruff and Seborrheic Dermatitis” (Metabolites, 2019).
# Target: hCA II
# Conditions: pH 8.3; cited from earlier work
structure (smiles),measurement,value
"O=NO [NO2^−, nitrite]",pKi,1.20

# pKi: −log10 of the molar value.
